Experimental data reported in US20170128592A1, “TARGETED POLYMERIC NANO-COMPLEXES AS DRUG DELIVERY SYSTEM” (Indian Institute of Technology, Bombay, priority 2015, published 2017).

Key:
[1] = Surface charge by Zeta-potential analyzer; assay type: physicochemical; conditions: Milli Q water, room temperature, pH 7.0
Method: (§1) The particle size and size distribution of the well-dispersed and nanocomplexes (0.5 mg/mL) diluted in Milli Q water were measured by Dynamic light scattering (DLS, 90Plus, Brookhaven Instruments Corporation, USA) at 25° C., scattering angle of 90° and using a 632 nm red laser. The surface charge of the nanocomplexes was determined by ZetaPlus Zeta-potential analyzer (Brookhaven Instruments Corporation, USA) in Milli Q water at room temperature at pH 7.0. Physical stability of the nanocomplexes when stored at 4° C. as a suspension in PBS (pH 7.4) was examined by evaluating their size distribution and zeta potential over a period of one month. CA4 or 2 ME encapsulation efficiency in the PLGA-b-PEG nano-complexes and Cet-PLGA-b-PEG nano-complexes were measured by UV spectrophotometer (Perkin Elmer, Lambda 25) and calculated using the following formula; Drug encapsulation efficiency (%)=(amount of loaded drug/amount of drug added)×100%.

Huh7 cells [2] = test: SRB cytotoxicity assay; assay type: cell-based, human; conditions: Huh7, 50, 75, 100, 150 and 250 μg/mL, 48 hr
Method: (§2) For cytotoxicity measurements, Hep G2 and Huh7 cells were incubated in 96-well plates (Nunc, USA) at 5×10^4 cells/well density and then treated with bare PLGA-b-PEG NP, Cet-PLEA-b-PEG NP (50-250 μg/mL), free drug CA4, its nano-complexes ([…]) and free drug 2 ME, its nano-complexes (1-15 μM) for 48 hr. […] The standard SRB assay was used to measure the cell viabilities. The absorbance was measured with a 96-well fluorescence plate reader (SPECTRAmax M2, Molecular Devices, USA) equipped with the SOFTmax Pro software (Molecular Devices), at a 550 nun wavelength. IC50 values of the free drugs and all the nanocomplexes were evaluated using OriginPro 8.0 software.

Hep G2 cells = test: SRB cytotoxicity assay; assay type: cell-based, human; conditions: Hep G2, 50, 75, 100, 150 and 250 μg/mL, 48 hr
Method: as §2

Particle size by FEG-TEM = assay type: physicochemical
Method: The size, shape and surface morphology of the nanocomplexes were investigated using the field-emission gun transmission electron microscopy (FEG-TEM, JEOL, JEM-2100 F, Japan) operating at 200 kV. Samples (0.5 mg/mL) were dropped on carbon-coated copper grid, negatively stained with 1% phosphotungstic acid and air dried. For field-emission gun scanning electron microscopy (FEG-SEM, JSM-7600 F, Japan) analysis, the dried nanocomplexes were placed on a stub and coated with gold using a sputter gold coater Auto Fine Coater (JEOL, Tokyo, Japan) prior to SEM application.

[3] = Particle size and size distribution by dynamic light scattering; assay type: physicochemical; conditions: DLS, mean hydrodynamic diameter, Milli Q water, 25° C., three determinations
Method: as §1

normal L929 cells = test: SRB biocompatibility assay; assay type: cell-based; conditions: L929, 50-250 μg/mL, 48 hr
Method: as §2

normal NIH3T3 cells = test: SRB biocompatibility assay; assay type: cell-based; conditions: NIH3T3, 50-250 μg/mL, 48 hr
Method: as §2

Huh7 cells [4] = test: Intracellular uptake by ultrastructural TEM; assay type: cell-based, human; conditions: Huh7, 50 μg/mL (combination 25+25 μg/mL), 24 hr
Source text: Untreated cells served as the control. Briefly, the treated cells were centrifuged, fixed with 2.5% glutaraldehyde, washed with PBS, followed by fixation with 1% osmium tetroxide. Cells were dehydrated in a graded series of alcohol, embedded using DER 332-732 embedding kit (EMS, USA) and polymerized for 48 hr. These resin blocks containing cells were sectioned using an ultramicrotome (Leica Ultracut UCT, Germany) and ultrathin sections (70 nm) were transferred onto 300 mesh Formvar and carbon coated copper grids (EMS, USA). The grids were then processed with uranyl acetate and lead citrate solutions to visualize the cellular ultrastructures. Internalization of the nanocomplexes was visualized under TEM (FEI TECNAI, 12 BioTwin, Netherlands) operating at 80 kV.

Cet-PLGA-b-PEG NP: bare PLGA-b-PEG nano-complex surface functionalized with cetuximab
Zeta potential (mV ± SE) [1]: −18.85 ± 4.51 mV
cytotoxicity of bare nanocomplexes (Huh7 cells [2]): non-cytotoxic
cytotoxicity of bare nanocomplexes (Hep G2 cells): non-cytotoxic
average size of the particles by FEG-TEM (Particle size by FEG-TEM): 200±20 nm
Particle size (nm ± SE) [3]: 291.9 ± 2.3 nm
cytotoxicity of bare nanocomplexes (biocompatibility) (normal L929 cells): non-cytotoxic
cytotoxicity of bare nanocomplexes (biocompatibility) (normal NIH3T3 cells): non-cytotoxic
ultrastructural TEM findings, internalization and cell morphology (Huh7 cells [4]): mostly distributed in the cell cytoplasm
